## Apparent affinities of Ab-14 variants for a coronavirus HR2 peptide

From the AlphaSeq antibody data of Engelhart et al. 2022 (doi:10.1038/s41597-022-01779-4), copy in the FLAb collection.

Target peptide (SARS-CoV-2 spike, HR2 region): PDVDLGDISGINAS

The variants keep the heavy chain, the linker and the frameworks of Ab-14 (scFv order VH, three GGGGS repeats, VL).
VH: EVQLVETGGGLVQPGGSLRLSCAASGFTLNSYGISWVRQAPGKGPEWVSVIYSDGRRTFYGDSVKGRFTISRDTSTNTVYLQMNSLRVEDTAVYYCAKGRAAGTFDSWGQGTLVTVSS
VL: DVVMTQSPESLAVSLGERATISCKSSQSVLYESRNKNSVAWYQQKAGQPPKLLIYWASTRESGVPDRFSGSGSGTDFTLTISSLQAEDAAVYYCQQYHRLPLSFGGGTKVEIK

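Phage display of a naive human antibody library on the peptide gave the parent. AAYL50 was designed without a model: most single CDR substitutions and a random sample of double and triple ones. The assay is AlphaSeq: two haploid yeast populations carry antibody and antigen on their surface. After mating in shaken culture at 30 °C for 16 h, diploids were selected and their barcode pairs sequenced. Scores were corrected for input abundance and mapped to Kd with protein pairs of known affinity run in the same pool. Mating was done three times.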

Each variant is given by its three light chain CDRs, as the data file delimits them; those of the parent are KSSQSVLYESRNKNSVA, WASTRES, QQYHRLPLS. Numbers give log10(Kd / nM), so 0 is 1 nM and 3 is 1 µM. Smaller is tighter. Replicates are averaged; those with no signal do not enter the mean. A pair that was not seen in any replicate is written "not detected"; this usually means weak binding, but a binder can also be missed. For reference, the parent read 0.65 as the reference entry and 1.68 as a member of this library. Empty control strains, which show no peptide, gave a signal in 18% of pairings with library AAYL50; the median was 4.19 and 95% of these signals were weaker than 2.99. No background was subtracted.

CDR-L1	CDR-L2	CDR-L3	mean log10 Kd (nM)	detected
YSSQSVLYESRNKNSNA	WASTRES	QQYHRLPLS	not detected	0 of 3
KMSQSVLYESRNKNSVA	WWSTRES	QQYHELPLS	not detected	0 of 3
KSSFSVTYESRNKNSVA	WASTRES	QQYHRLPWS	3.96	3 of 3
KSSNIVLYESRNKNSVA	WASCRES	QQYHRLPLS	2.31	3 of 3
ISSQSVLYESRNKNSVA	WASLRES	QWYHRLPLS	5.78	2 of 3
KSSQSVLGESRNKNSGA	WASYRES	QQYHRLPLS	5.32	1 of 3
KSSQSVLYESRNKNMAA	WASTRES	QQYHRLPLI	4.31	1 of 3
KSSQSVLYESRMKNSVA	WASTRCS	QQYHRLPLS	1.91	3 of 3
KSSQCVLDESRNKNSVA	WASTRES	QQYHRHPLS	0.72	3 of 3
KSSQSVLYESRNKHSVA	WASTRES	QQYHSGPLS	1.04	3 of 3
KSSQSVLYESRNKNSVA	WISTREF	QQYHRLPLS	not detected	0 of 3
ESSQSVPYESRNKNSVA	WASYRES	QQYHRLPLS	1.87	3 of 3
KSSQSVLYKSKNKNSVA	WASTPES	QQYHRLPLS	2.60	2 of 3
KSSQNVLYESRYKNSVA	WASTRES	QQQHRLPLS	not detected	0 of 3
KSSQSVLYESRNKNQGA	WASTRES	QDYHRLPLS	4.24	1 of 3
KSSMSVAYESRNKNSVN	WASTRES	QQYHRLPLS	not detected	0 of 3
YSSQSVLNESRNKNSVA	WASTRES	QQYHRVPLS	0.93	3 of 3
KSSQSVLYESRNKNSRA	FASTRES	LQYHRLPLS	4.49	2 of 3
KSQQSVLYESRNKNSVA	WAFTRES	QQYHCLPLS	4.46	1 of 3
KSSQSVLYESRNKNSVA	RASTQES	QQNHRLPLS	4.58	1 of 3
KSSQSVLYESRNKCSVE	WASTRES	QQYHRLPLI	not detected	0 of 3
KSSTSVLYPSRNFNSVA	WASTRES	QQYHRLPLS	0.72	3 of 3
KSSQHVLYESRNKNSVA	WASWRES	QQYHSLPLS	4.74	1 of 3
CSSQSVLYESRNKNSVA	WASTCES	QQYHRLPLY	not detected	0 of 3
KSDQSVLYESTNKNSVA	WAITRES	QQYHRLPLS	2.53	3 of 3
KSFQAVLYESRNKNSVA	WASTRES	QHYHRLPLS	not detected	0 of 3
KSSQSVLGESRNKNSVA	WGSTRES	QQCHRLPLS	3.65	1 of 3
KSSESVLWESYNKNSVA	WASTRES	QQYHRLPLS	3.36	3 of 3
TSSQSVLYESRNKNSVA	PASTRRS	QQYHRLPLS	4.16	2 of 3
KSSQSNLYESRNKNPVA	WASTRES	QQYHFLPLS	5.37	2 of 3

Continued, with the values leading:

mean log10 Kd (nM)	detected	CDR-L1	CDR-L2	CDR-L3
1.25	3 of 3	KSSKSVLYESRNKNSVA	WASTRES	SQYHRLPLS
2.86	1 of 3	KSSQSVQYESRNKNSVI	WASTRES	QQYHRLPNS
3.27	3 of 3	KSSQSVNYESRNKNSVA	WASTREY	QQYHRLPLY
3.12	2 of 3	TSSTSVLYESRNKNSVA	WAPTRES	QQYHRLPLS
1.84	3 of 3	KSSQSVLYESRIKNSVA	WASTRES	QQEHRPPLS
not detected	0 of 3	KSSQSVLYESNMKNSVA	WASTRES	QQVHRLPLS
0.71	3 of 3	KSQQSVLLESRNKNSVA	WASTRES	QQYHGLPLS
2.09	1 of 3	KSSQSVLYESRNKNSVA	WDSQRES	QNYHRLPLS
0.66	3 of 3	KLSQSVLVESRNKNSVA	WASGRES	QQYHRLPLS
not detected	0 of 3	KSSQSVLYESRNKNSVA	WASVRES	QQYHRLHLS
4.86	2 of 3	KSSQSVLYESRNKNSQA	WNSTRES	QQYHRLPLS
4.32	2 of 3	KSRQSVLYESRNKNSVA	FASTRES	QQWHRLPLS
3.41	3 of 3	KSSQSVLYESRNPNMVA	WASTRES	QQYHRMPLS
-0.01	3 of 3	KPSQSVLYESANKNSVA	NASTRES	QQYHRLPLS
not detected	0 of 3	KSSQSVLYESRYKNSVA	WASTRES	QQIHRLSLS
3.39	1 of 3	KSSQSVLYESRNFNSVA	WASTGES	QQYHRLPLS
2.46	1 of 3	KASQSVLYESRNKNSVA	WASTRES	SQYHGLPLS
1.16	3 of 3	KFSQSVLYESRCKNSVA	WASTLES	QQYHRLPLS
0.60	3 of 3	KQSQSVLYESRNKNSVA	WASTRES	QQYHELPAS
not detected	0 of 3	KSHQSVLYESRNKNSQN	WASTRES	QQYHRLPLS
not detected	0 of 3	KYSQSVLYESRNKNSVA	WANTRES	QQYHRLGLS
not detected	0 of 3	KSSQSVLYESKNKNSVA	WASTRES	QHGHRLPLS
3.15	3 of 3	KSSQSVLYESRNKNDVA	WASTRES	KQYHRLPLS
0.20	3 of 3	KCSQSVLYESRNKNSVA	WASTRED	QSYHRLPLS
4.98	1 of 3	KSSQSGLYESRNKNSVA	WASTRES	QQQHRLPLS
0.40	3 of 3	KLSQSVLYESRNKNPIA	WASTRES	QQYHRLPLS
not detected	0 of 3	KSSTSVLYESRNKNSVA	WPSTRES	QQYHRLPLS
1.72	3 of 3	KSSQSVLYESRNKNSLA	WASTRES	QQYNRIPLS
not detected	0 of 3	KSSQSVLYESRNVNSRA	WASTRES	QQYHRLPCS
not detected	0 of 3	KSSQSVLYESRNKNSVF	WASTRES	LQYHRLPLW
2.14	3 of 3	KSSQRELYESRNKNSVA	WASTRES	GQYHRLPLS

Repeated from above, the 5 best binders with a signal in all replicates:

CDR-L1,CDR-L2,CDR-L3,mean log10 Kd (nM),detected
KPSQSVLYESANKNSVA,NASTRES,QQYHRLPLS,-0.01,3 of 3
KCSQSVLYESRNKNSVA,WASTRED,QSYHRLPLS,0.20,3 of 3
KLSQSVLYESRNKNPIA,WASTRES,QQYHRLPLS,0.40,3 of 3
KQSQSVLYESRNKNSVA,WASTRES,QQYHELPAS,0.60,3 of 3
KLSQSVLVESRNKNSVA,WASGRES,QQYHRLPLS,0.66,3 of 3